# scFv variants of Ab-14 (light chain) against a SARS-CoV-2 spike peptide

Target: peptide PDVDLGDISGINAS, taken from heptad repeat 2 (HR2) of SARS-CoV-2 spike.

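The starting antibody came from a phage panning campaign against this peptide. The library (AAYL50) carries one to three amino acid substitutions per variant, with no insertions or deletions. In AlphaSeq, yeast of one mating type display the scFv and yeast of the other type display the target. Binding brings cells together so that they mate, and sequencing counts the barcode pairs among the diploids. Each replicate has its own calibration line, from reference interactions of the BCL2 family. The assay was run in three technical replicates.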

Ab-14 is the parent antibody, in scFv form: VH, then a 15-residue (Gly4Ser)3 linker, then VL. The heavy chain is unchanged in all variants.
VH: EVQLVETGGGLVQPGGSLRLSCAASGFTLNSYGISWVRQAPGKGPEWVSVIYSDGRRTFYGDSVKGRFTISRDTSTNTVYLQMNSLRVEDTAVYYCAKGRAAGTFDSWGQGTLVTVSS
VL: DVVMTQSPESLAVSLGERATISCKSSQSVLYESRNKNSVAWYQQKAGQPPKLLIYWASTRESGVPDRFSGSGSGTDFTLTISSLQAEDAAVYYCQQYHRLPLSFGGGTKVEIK

Variants are written as CDR1, CDR2 and CDR3 of the light chain (limits as in the source). Parent: KSSQSVLYESRNKNSVA, WASTRES, QQYHRLPLS.
Every variant below is changed at S38 of the VL (sequential numbering).
Values are apparent Kd, the geometric mean of the replicates that gave a signal; lower means stronger binding.
Where no diploid with the target was found in any replicate, the entry reads "nd": below detection, most likely a poor binder, though not proof of it.
Parent in this assay: reference entry 4.4 nM, copy in this library 48 nM.
Nonspecific signal, from three strains lacking the peptide, appeared in 18% of pairings of library AAYL50, centred on 15 µM (5% of these signals below 970 nM); values are not corrected for it.

Variant KSSQTVLYESRNKNCVA | WASTRES | QQYHRLPSS showed 270 nM (3 of 3 replicates). Variant KSSQSVLYESRNKNVVA | WASTRES | QQYSRLPPS gave nd (0 of 3 replicates). With KSSQSVLYESRNKNLVA | WHSTRES | QPYHRLPLS the result was nd (0 of 3 replicates). Variant KSHQSVLYDSRNKNYVA | WASTRES | QQYHRLPLS gave 92 nM (3 of 3 replicates). With KSSQSVLYESRNKTNVA | WASTRES | QQYHRLQLS the result was 19 µM (3 of 3 replicates). Variant KSSQHVLYESRNKNIVA | WASTRES | QQHHRLPLS showed 18 µM (3 of 3 replicates). For KSSQSVLYESRDKNMVA | WASTRES | QQDHRLPLS, the assay gave 150 µM (1 of 3 replicates). Variant KSSQSVLYESRNYNAVA | WMSTRES | QQYHRLPLS gave 190 nM (3 of 3 replicates). Variant KSSQSVLYESRNKNIVR | WASTRVS | QQYHRLPLS showed nd (0 of 3 replicates).

Variant KSQNSVLYESRNKNIVA | WASTRES | QQYHRLPLS gave 4.6 µM (1 of 3 replicates). With KSSQSVLYESRNKNKVA | WASTRES | QEYHRLPLS the result was 31 µM (1 of 3 replicates). With KSFQSVLYESRNKNNTA | WASTRES | QQYHRLPLS the result was nd (0 of 3 replicates). For KSSQMVFYESRNKNFVA | WASTRES | QQYHRLPLS, the assay gave nd (0 of 3 replicates). For QSSQSVLYESRNKNRVA | WADTRES | QQYHRLPLS, the assay gave 450 nM (2 of 3 replicates). For KSSQSVLYESRNKGAVA | WASTDES | QQYHRLPLS, the assay gave 9.5 µM (1 of 3 replicates). With KSSDSVLYESRNKNFVA | WASTRES | QQYHRLSLS the result was 280 nM (2 of 3 replicates). Variant KSSQSVLYESRNKNCVA | WASTRES | WKYHRLPLS gave 28 µM (2 of 3 replicates). For KSSQSLLYESRRKNWVA | WASTRES | QQYHRLPLS, the assay gave 920 nM (1 of 3 replicates).

With KSSQSVLYESRNKNHVA | WASTRES | QQTHPLPLS the result was 7.2 µM (3 of 3 replicates). Variant KSSQSTLYESRNKNWVA | WESTRES | QQYHRLPLS gave nd (0 of 3 replicates). For KSSQSVLYESRMKNFVY | WASTRES | QQYHRLPLS, the assay gave 3.0 µM (1 of 3 replicates). Variant KSSQSVLYESRNKNKVA | WASTRES | QQYHRLFLT gave nd (0 of 3 replicates). Variant KSSQSVLVQSRNKNDVA | WASTRES | QQYHRLPLS showed 92 nM (3 of 3 replicates). For KSSQSVLYESKNKNLVA | CASTRES | QQYHRLPLS, the assay gave 5.0 µM (1 of 3 replicates). Variant CSSHSVLYESRNKNQVA | WASTRES | QQYHRLPLS showed nd (0 of 3 replicates). With HSSQSVLYESRNKNGVA | WASTEES | QQYHRLPLS the result was 9.8 µM (1 of 3 replicates). Variant QSSQSVLYESRNKNHVA | WASTREE | QQYHRLPLS gave 19 nM (3 of 3 replicates).

For KSSQSVLYESRNKNQVA | WAVTRYS | QQYHRLPLS, the assay gave 49 nM (3 of 3 replicates). With KSSQPVLYESRNKNNVA | WASTRES | QQVHRLPLS the result was 320 nM (3 of 3 replicates). With KSSQSVLYESRNKNQVA | WASTRES | QQYHRDPLS the result was nd (0 of 3 replicates). With KSSKSVLYESRNKNQVA | WASTGES | QQYHRLPLS the result was nd (0 of 3 replicates). With KSSQSVLYESRNLNFVA | WASTRES | QQYHRLPLS the result was nd (0 of 3 replicates). Variant KSSQSVLYESRNKNKVA | WARTRES | QQYHRLPLS showed nd (0 of 3 replicates). Variant KSYQSWLYESRNKNMVA | WASTRES | QQYHRLPLS showed 19 µM (1 of 3 replicates). For KSMQSVLYESRNKNIVS | WASTRES | QQYHRLPLS, the assay gave nd (0 of 3 replicates). Variant KHSQSVLYTSRNKNHVA | WASTRES | QQYHRLPLS gave 500 nM (3 of 3 replicates).

Variant KSSQQVLYESRNKNGVA | WASTRES | QQYNRLPLS gave 26 nM (3 of 3 replicates). Variant KSSQSVLYESRNKNFVA | RASTRES | QQYHRLPLY showed 91 nM (3 of 3 replicates). Variant WSSQSVLYESRNKNFEA | WASTRES | QQYHRLPLS gave nd (0 of 3 replicates). With KSSQSVLLESRNKNFGA | WASTRES | QQYHRLPLS the result was nd (0 of 3 replicates). Variant KSSQSVLYESRNKNIVA | KASKRES | QQYHRLPLS gave nd (0 of 3 replicates). Variant KSSQSVLYESRNKNYVA | WASERES | QQQHRLPLS gave nd (0 of 3 replicates). Variant KSSQSVLYESRNENCVA | WASARES | QQYHRLPLS showed 4.2 µM (3 of 3 replicates). With KSSQQVLYESRNKNYVA | WASTRES | QQYHRLPLS the result was 820 nM (3 of 3 replicates).

Picked from the list: the 6 lowest averages where every replicate gave a value.

| CDR-L1 | CDR-L2 | CDR-L3 | Kd | replicates with signal |
|---|---|---|---|---|
| QSSQSVLYESRNKNHVA | WASTREE | QQYHRLPLS | 19 nM | 3 of 3 |
| KSSQQVLYESRNKNGVA | WASTRES | QQYNRLPLS | 26 nM | 3 of 3 |
| KSSQSVLYESRNKNQVA | WAVTRYS | QQYHRLPLS | 49 nM | 3 of 3 |
| KSSQSVLYESRNKNFVA | RASTRES | QQYHRLPLY | 91 nM | 3 of 3 |
| KSHQSVLYDSRNKNYVA | WASTRES | QQYHRLPLS | 92 nM | 3 of 3 |
| KSSQSVLVQSRNKNDVA | WASTRES | QQYHRLPLS | 92 nM | 3 of 3 |

From the AlphaSeq antibody data of Engelhart et al. 2022 (doi:10.1038/s41597-022-01779-4), copy in the FLAb collection.